Earlier results on two compounds are cited in article PMC8498988, “Scaffold Hybridization Strategy Leads to the Discovery of Dopamine D3 Receptor-Selective or Multitarget Bitopic Ligands Potentially Useful for Central Nervous System Disorders” (ACS Chemical Neuroscience, 2021).

The chains behind the UniProt entries cited, without tags or fusion partners.
UniProt P28223, whole entry: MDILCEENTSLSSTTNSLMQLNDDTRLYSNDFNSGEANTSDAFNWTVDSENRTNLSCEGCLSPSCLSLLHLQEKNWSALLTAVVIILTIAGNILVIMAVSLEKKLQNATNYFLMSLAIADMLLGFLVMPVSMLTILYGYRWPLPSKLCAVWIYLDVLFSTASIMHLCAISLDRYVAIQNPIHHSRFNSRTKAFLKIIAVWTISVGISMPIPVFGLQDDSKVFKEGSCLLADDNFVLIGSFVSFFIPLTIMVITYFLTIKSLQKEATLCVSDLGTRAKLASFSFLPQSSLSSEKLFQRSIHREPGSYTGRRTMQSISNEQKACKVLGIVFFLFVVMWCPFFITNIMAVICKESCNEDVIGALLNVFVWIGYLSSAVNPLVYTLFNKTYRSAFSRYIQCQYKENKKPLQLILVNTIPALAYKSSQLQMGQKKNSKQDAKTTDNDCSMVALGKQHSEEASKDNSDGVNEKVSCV

The conditions of data set [1]: in 20% aqueous ethanol; cited from earlier work.
The target of data set [2] is 5-HT2AR (Homo sapiens, UniProt P28223). More on the design: expressed in transfected cells; host or cells: HEK (HEK-h5HT2A). Conditions: read-out: Ki ± SEM, 5-HT2AR; cited from earlier work.

Consider `O=C1CCc2ccc(OCCCCN3CCN(c4cccc(Cl)c4Cl)CC3)cc2N1` [aripiprazole], for which the “experimental pKa value” in data set [1] is 7.6.

On to `COc1ccccc1OCCNCC1COCC(c2ccccc2)(c2ccccc2)O1` (centres unmarked) [compound 1], for which, in data set [2], the Ki was 52.5 ± 4.4 nM.
